Source: PubChem BioAssay
The list is not random: actives were taken first. Their share in the collection is about 1.7%.
CAL PDZ FP-1 = untagged CAL PDZ binding inhibitors, primary screen, biochemical, fluorescence polarization, HTS | inhibition, % at 24.9 µM | Golgi-associated PDZ and coiled-coil motif-containing protein (Homo sapiens), Q9HD26 | AID 602252, 2012 | purified CAL PDZ, TMR-peptide fluorescence polarization, 1 h | 300,000 tested, 0.92% active;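 active means mean inhibition of at least 30% with at least half of replicates also reaching 30%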;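 further: 0% = DMSO neutral control and 100% = excess unlabeled competitor peptide PRC23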
CDK5 inh = inhibitors of human CDK5/p35 kinase, primary screen, biochemical, single concentration. inhibition, % at 10 µM. Recombinant CDK5/p35, ADP-Glo luminescence, 60 min. Cyclin-dependent kinase 5 (Homo sapiens) + Cyclin-dependent kinase 5 activator 1 (Homo …. AID 488839, 2010. 330,000 tested, 0.01% active;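 active means highest replicate inhibition of at least 50% and at least 75% of replicates reaching 50%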;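 further: plate controls were DMSO neutral control for no effect and GW8510 at 10 µM for full effect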
dFosB act = activators of delta FosB homodimer, primary screen, biochemical, fluorescence polarization, TAMRA-CDK5 oligo, single point. Protein FosB (Mus musculus), P13346. purified delta FosB; percent of positive-control signal above neutral wells. activation, % at 25 µM. 340,000 tested, 0.99% active. AID 493131, 2011;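 active means mean activation above about 17%, with every replicate also reaching it, limit read from the data, passing the limit was not always enough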
Dyrk1A ADPGlo = rat Dyrk1A kinase inhibitors, primary screen, biochemical, single point, plate reader; Dual specificity tyrosine-phosphorylation-regulated kinase 1A (Rattus norvegicus), Q63470; ADP-Glo luminescence, NFATc1 peptide; inhibition, % at 12.5 µM; 310,000 tested, 0.43% active; in the data active means inhibition above about 50%;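 further: plate controls were vehicle with enzyme for no effect and no enzyme for full effect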
CAL PDZ FP-2 = CAL PDZ peptide-binding inhibitors, primary screen, biochemical, fluorescence polarization, Cer-tagged CAL PDZ, HTS; Golgi-associated PDZ and coiled-coil motif-containing protein (Homo sapiens), Q9HD26; purified CAL PDZ, TMR-peptide fluorescence polarization, 1 h; inhibition, % at 20 µM; 330,000 tested, 0.02% active; AID 504414, 2011;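 active means highest replicate inhibition of at least 40%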;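 further: plate controls were DMSO neutral control wells for no effect and unlabeled competitor peptide control wells for full effect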
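Control set: unlabelled peptide and DMSO controls / Material: purified CerCALP PDZ construct / Timing: 1 h incubation at room temperature before polarization reading / Doses: 20 µM, one dose / Detection: fluorescence polarization (mP)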
UUG fidelity = alters start codon recognition fidelity in yeast. S. cerevisiae UUG-firefly luciferase reporter, luminescence/redox ratio. AID 602363. activity score, % at 18.7 µM. hit rate 0.13% among 350,000;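 active = replicate mean at a twofold rise or more, about +100% in these data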;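 note: firefly luciferase made from a UUG start codon reports start codon fidelity; reporter light over untreated wells divided by growth signal over untreated wells; some hits fall short of that in this replicate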
Dyrk1A artifact = ADP-Glo luciferase interference without Dyrk1A, dose response, artefact control for Dyrk1A inhibitor project, biochemical, luminescence, cherry-pick, set 02. shares compounds with Dyrk1A ADPGlo. 1,300 tested, under 10 active. AC50, µM (top dose mostly 12 µM), inactives show at the highest dose activity change, negative = inhibition. ADP-Glo luciferase artifact assay, no Dyrk1A;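 active means fitted half-maximal dose AC50 no more than ten times the top valid tested dose, with luminescence dropping as dose rises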
* = called active by the depositor; nt = not tested or not shown.

item	Molecule	CDK5 inh	Dyrk1A artifact	CAL PDZ FP-1	CAL PDZ FP-2	dFosB act	Dyrk1A ADPGlo	UUG fidelity
1	N#Cc1ccc(-c2ccc3c(c2)[C@H]2[C@H](CCN2C(=O)c2ccncc2)[C@H](CO)N3)cc1	nt	nt	nt	nt	nt	nt	-4
2	C/C=C/c1ccc2c(c1)O[C@@H](CN(C)C(=O)Cc1ccccc1)[C@H](C)CN([C@H](C)CO)S2(=O)=O	nt	nt	nt	nt	nt	nt	14
3	O=C(CCN1CCCCC1)N[C@@H]1C=C[C@H](CC(=O)N2CCC(Cc3ccccc3)CC2)O[C@@H]1CO	nt	nt	nt	nt	nt	nt	2
4	O=C(Nc1ccc(F)cc1F)c1csc(-c2cccs2)n1	1	nt	-4	0	9	nt	nt
5	O=C(Nc1ccc(F)cc1F)c1csc(-c2ccncc2)n1	-3	7%	-4	-3	-18	52*	nt
6	CC(=O)c1ccc(NC(=O)Nc2ccc([N+](=O)[O-])cc2)cc1	0	nt	nt	0	0	-8	nt
7	O=C(O)/C=C/c1cccc(NC(=O)Nc2ccc([N+](=O)[O-])cc2)c1	0	8%	-2	-3	0	66*	-15
8	C[C@H]1CN([C@@H](C)CO)S(=O)(=O)c2ccc(-c3cccc(F)c3)cc2O[C@H]1CN(C)CC1CC1	nt	nt	nt	nt	nt	nt	-6
9	O=C1CCN(CCCc2ccccc2)CCN1[C@H](CO)c1ccccc1	0	9%	-1	0	2	51*	-5
10	C[C@H](CO)N1C[C@H](C)[C@@H](CN(C)C(=O)Cc2ccccc2)OCCCC[C@H](C)Oc2ccc(NC(=O)Nc3ccc4c(c3)OCO4)cc2C1=O	nt	nt	nt	nt	nt	nt	-10
11	Cc1ccc2c(c1)C(=C(C#N)C#N)CCN2	4	9%	39*	-1	-3	61*	nt
12	N#CC(C#N)=C1C=CC=CN1/C(=C\c1ccco1)C(=O)c1ccccc1	0	6%	-1	0	-9	63*	nt
13	COCC(=O)Nc1ccc2c(c1)C(=O)N(C)[C@@H]1CC[C@@H](CC(=O)NCCc3ccccc3)O[C@H]1CO2	nt	nt	nt	nt	nt	nt	-4
14	COc1ccccc1-c1sc2ccccc2c1C#Cc1ccc(N(C)C)cc1	1	8%	-3	0	3	51*	-26
15	COc1ccccc1-c1sc2ccccc2c1-c1ccc(O)cc1	3	nt	1	0	0	1	-44
16	CCCN1[C@H](C(=O)N[C@@H](C)c2ccccc2)[C@@H](CO)[C@@H]2Cn3c(ccc(-c4ccccc4)c3=O)[C@@H]21	nt	nt	nt	nt	nt	nt	18
17	Nc1[nH]n2c(=O)cc(-c3ccccc3)nc2c1N=Nc1ccc(S(N)(=O)=O)cc1	3	7%	-9	nt	-24	64*	nt
18	CC1=C(C(=O)OCc2ccc3c(c2)OCO3)C(c2ccc(F)cc2)NC(=O)N1 (configuration not stated)	4	8%	-2	-1	-8	70*	10
19	Cc1nc(N)sc1-c1csc(Nc2ccccc2)n1	0	8%	-6	nt	-3	52*	4
20	Cc1nc(N)sc1-c1csc(Nc2cccc(C(=O)O)c2)n1	-6	nt	-5	-1	-22	25	11

(continued)
item	Molecule	CDK5 inh	Dyrk1A artifact	CAL PDZ FP-1	CAL PDZ FP-2	dFosB act	Dyrk1A ADPGlo	UUG fidelity
21	CC(=O)Nc1nc(C)c(-c2csc(Nc3ccc(O)cc3)n2)s1	3	8%	nt	3	-3	76*	-7
22	Cc1ccc(S(=O)(=O)Nc2ccc3c(c2)C(=O)N([C@H](C)CO)C[C@H](C)[C@H](CN(C)S(=O)(=O)c2cn(C)cn2)OCCCC[C@@H](C)O3)cc1	nt	nt	nt	nt	nt	nt	1
23	O=C(O)Cc1ccc(N=Nc2c(O)c(C(=O)O)cc3ccccc23)cc1	2	nt	-3	-1	-11	35	-5
24	NS(=O)(=O)c1ccc(N=Nc2c(O)c(C(=O)O)cc3ccccc23)cc1	18	6%	-4	10	-8	54*	-17

In the list so far, 3 have a thiophene ring, fused or not:
item	Molecule	CDK5 inh	Dyrk1A artifact	CAL PDZ FP-1	CAL PDZ FP-2	dFosB act	Dyrk1A ADPGlo	UUG fidelity
4	O=C(Nc1ccc(F)cc1F)c1csc(-c2cccs2)n1	1	nt	-4	0	9	nt	nt
14	COc1ccccc1-c1sc2ccccc2c1C#Cc1ccc(N(C)C)cc1	1	8%	-3	0	3	51*	-26
15	COc1ccccc1-c1sc2ccccc2c1-c1ccc(O)cc1	3	nt	1	0	0	1	-44
